Usually IC50 stands for the midpoint of a concentration-inhibition curve. Read a high IC50 as a need for much substance.

Chains of the proteins cited; added tags and fusions are not shown. A line that says so, or that is headed by a name, gives the form on record, which may keep a tag or linker.
UniProt P15692, other isoform, or with tags, fused parts or gaps: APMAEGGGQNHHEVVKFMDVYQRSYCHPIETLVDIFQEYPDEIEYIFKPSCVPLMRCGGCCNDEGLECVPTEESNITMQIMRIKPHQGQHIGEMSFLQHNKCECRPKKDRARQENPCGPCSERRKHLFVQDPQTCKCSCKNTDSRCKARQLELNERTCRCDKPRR

The target of the test is VEGFA-165 (human, UniProt P15692). Briefly: competition.

B1: ranibizumab (antibody)
chain 1: EVQLVESGGGLVQPGGSLRLSCAASGYDFTHYGMNWVRQAPGKGLEWVGWINTYTGEPTYAADFKRRFTFSLDTSKSTAYLQMNSLRAEDTAVYYCAKYPYYYGTSHWYFDVWGQGTLVTVSSASTKGPSVFPLAPSSKSTSGGTAALGCLVKDYFPEPVTVSWNSGALTSGVHTFPAVLQSSGLYSLSSVVTVPSSSLGTQTYICNVNHKPSNTKVDKKVEPKSCDKTHL
chain 2: not shown
The molecule B1 returned an IC50 of 12.5 nM.

Values taken from patent US20150376271 (published 2015).
